1 substance from PMC6407616 (Molecular cell, 2018) can be followed below.

For the test, the target named is H3Kc9me3 mononucleosome (601 positioning sequence) (Xenopus laevis). As to the kind of experiment: fluorescence polarisation.

Substance “full-length recombinant ZMET2 (wild type) (from UniProt Q9AXT8 1-912) (enzyme)” returned a Kd of 890 nM.
